Reference: patent publication US20230167200A1 (BIOTHEUS, published 2023)

Key:
[1] = target: anti-PD-1/TIGIT/human serum albumin trispecific antibody Bi-72-73; assay: BLI (Octet), biotinylated human PD-1 on SA sensor, antibody 100 nM, then TIGIT, then HSA
[2] = target: anti-PD-1/TIGIT/human serum albumin trispecific antibody Bi-70-71; assay: as above

binding result [1]: binds
binding result [2]: binds
B1: biotinylated-labeled human PD-1 (ACROBiosystems) (receptor, UniProt Q15116 25-167, looked up)
chain: LDSPDRPWNPPTFSPALLVVTEGDNATFTCSFSNTSESFVLNWYRMSPSNQTDKLAAFPEDRSQPGQDCRFRVTQLPNGRDFHMSVVRARRNDSGTYLCGAISLAPKAQIKESLRAELRVTERRAEVPTAHPSPSPRPAGQFQ
modifications: biotinylated
notes: Bought protein, loaded on the SA sensor
